# Measurements taken from PMC11243598, “Inhibition of Monoamine Oxidases by Pyridazinobenzylpiperidine Derivatives” (Molecules, 2024).
# By UniProt entry, the sequences of proteins in these tests, tags left out.
# UniProt P21397, whole entry: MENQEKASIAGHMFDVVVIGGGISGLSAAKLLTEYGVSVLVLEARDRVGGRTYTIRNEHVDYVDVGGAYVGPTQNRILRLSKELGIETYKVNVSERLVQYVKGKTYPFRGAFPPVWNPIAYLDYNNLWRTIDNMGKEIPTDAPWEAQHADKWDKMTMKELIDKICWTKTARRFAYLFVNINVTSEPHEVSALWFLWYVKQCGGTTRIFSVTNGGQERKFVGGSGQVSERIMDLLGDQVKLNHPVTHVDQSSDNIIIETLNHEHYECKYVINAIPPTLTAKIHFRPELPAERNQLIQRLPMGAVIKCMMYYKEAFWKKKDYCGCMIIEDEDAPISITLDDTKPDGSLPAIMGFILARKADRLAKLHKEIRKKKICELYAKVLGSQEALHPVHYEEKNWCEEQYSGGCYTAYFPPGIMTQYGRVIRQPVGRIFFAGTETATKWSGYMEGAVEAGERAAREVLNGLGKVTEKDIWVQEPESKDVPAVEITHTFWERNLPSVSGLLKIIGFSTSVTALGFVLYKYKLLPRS
# Molecular target: hMAO-A (Homo sapiens, UniProt P21397)
# Assay: Inhibition of recombinant hMAO-A, kynuramine substrate, continuous absorbance method
smiles,measurement,value
"C#CCN(C)CCCOc1ccc(Cl)cc1Cl [Clorgyline, reference compound]",Residual Activity at 10 µM (%) MAO-A,−0.30 ± 0.43%
